Results published in patent publication US8536192B2, “6,7-unsaturated-7-carbamoyl substituted morphinan derivative” (priority 2005, dated 2013).

Biological target: opioid μ receptor (Rattus norvegicus (Rat), UniProt P33535)
Experiment: Binding assay to opioid μ receptor ([3H]-DAMGO, rat cerebrum membrane)
Conditions: radioligand, rat cerebrum membrane fraction; read-out: KD value obtained by Scatchard plot analysis
Protocol: 1) Method of Preparing Membrane Specimen for Binding Assay
A rat cerebrum (Slc: SD) which had been stored at −80° C. was used. To a cerebrum which had been weighed was added a 20-fold amount of ice-cooled 10 mM Tris-HCl buffer (pH 7.0), the mixture was homogenized (25000 rpm, 30 seconds) with Histocolon (NITI-ON), and centrifuged at 36600×g for 20 minutes. To the resulting pellet was added 15 ml of the same buffer, and the mixture was treated with Histocolon similarly, and centrifuged. This washing work was performed two times. After centrifugation, to the resulting pellet was added 15 mL of a 50 mM Tris-HCl buffer (pH 7.4), this was treated with Histocolon, and this was finally resuspended in a 10-fold amount of the same buffer, which was used as a crude membrane fraction (Life Sci. 48, 111-116, 1991). The prepared membrane specimen was frozen and stored at −80° C., and at a test, the specimen was rapidly thawed, and diluted to about 900 μg/mL with a 50 mM Tris-HCl buffer (pH 7.4) after the centrifugation and Histocolon treatment, and was used in an experiment. […]
After washing, the filter was transferred to a mini vial for liquid scintillation counter, 5 mL of a scintillator (Cleasol I) was added, and this was allowed to stand overnight, and the radioactivity was measured for 3 minutes with a liquid scintillation counter Tri-Carb 2200CA (PACKARD).

Question: How did the Kd turn out when C[C@@H](NC(=O)[C@@H](N)Cc1ccc(O)cc1)C(=O)NCC(=O)N(C)[C@@H](Cc1ccccc1)C(=O)NCCO [[^3H]-DAMGO, reference compound] was run?
Answer: 1.72 nM
